Source: US12383510B2 (Starton Therapeutics, Inc., priority 2020, dated 2025)

Tested on: healthy female volunteers

Cc1cc2c(s1)Nc1ccccc1N=C2N1CCN(C)CC1 [olanzapine, 2-methyl-10-(4-methyl-1-piperazinyl)-4H-thieno-[2,3-b][1,5]benzo-diazepine]
Incidence of sedation on day 1, comparison with placebo (all oral doses (2, 4, 6, 8 mg)): significantly greater in all doses of olanzapine than placebo | Sedation severity scores on day 1, comparison with placebo (all oral doses (2, 4, 6, 8 mg), scale 1=no sedation, 10=severe sedation): significantly different (higher sedation) than placebo | Dose dependence of sedation in the first day of dosing (oral doses 2-8 mg): NOT dose dependent
